Source: patent publication US6645755B1, “VECTOR MODIFIED BY SEQUENCE CODING FOR A SEQUENCE OF AMINO ACIDS CONTAINED IN A MAMMALIAN PROTEIN HAVING THE BIOLOGICAL ACTIVITY OF A MEMBRANE RECEPTOR, EXPRESSION OF THIS SEQUENCE IN TRANSFORMED UNICELLULAR CULTURES BY MEANS OF THIS VECTOR, PROCEDURE FOR STUDYING LIGANDS RECOGNIZING THESE RECEPTORS” (Centre National de la Recherche Scientifique, priority 1988, dated 2003)

Molecular target: T1, human β2-adrenergic receptor (Homo sapiens, UniProt P07550)
T1 construct: extending from the NcoI site to the DraI site which contained the coding region for the human β2-adrenergic receptor; β-galactosidase (lacZ product of λgt11, fused at the EcoRI site near the 3' end of lacZ) (N); linker Asp-Asp-Pro (acid-cleavable) (N); expressed in transfected cells; host or cells: E. coli Y1089 lysogenized with recombinant λgt11
Assay type: binding

Substance (−) norepinephrine has a Ki of 9.1 ± 1.1 µM.
